Data reported in patent US20260272932A1, “METHOD OF TREATING EARLY BREAST CANCER WITH RIBOCICLIB IN COMBINATION WITH AN AROMATASE INHIBITOR” (Novartis AG, priority 2023, published 2026).

Test system: patients with advanced BC
Assay: MONALEESA-2, -3 and -7: QTcF prolongation in ribociclib arms

CN(C)C(=O)c1cc2cnc(Nc3ccc(N4CCNCC4)cn3)nc2n1C1CCCC1 [Ribociclib, ribociclib]
patients with newly occurring post baseline QTcF of >480 msec (MONALEESA-2 ribociclib arm): 6.9% | patients with newly occurring post baseline QTcF of >480 msec (MONALEESA-3 ribociclib arm): 5.6% | patients with newly occurring post baseline QTcF of >480 msec (MONALEESA-7 (NSAI subgroup) ribociclib arm): 5.3%
